The results in this text go back to patent publication US20240360179A1, “STAPLED PEPTIDES AND METHODS THEREOF” (FOG PHARMACEUTICALS, INC., priority 2021, published 2024).

By UniProt entry, the sequences of proteins in these tests, tags left out.
UniProt P35222, whole entry: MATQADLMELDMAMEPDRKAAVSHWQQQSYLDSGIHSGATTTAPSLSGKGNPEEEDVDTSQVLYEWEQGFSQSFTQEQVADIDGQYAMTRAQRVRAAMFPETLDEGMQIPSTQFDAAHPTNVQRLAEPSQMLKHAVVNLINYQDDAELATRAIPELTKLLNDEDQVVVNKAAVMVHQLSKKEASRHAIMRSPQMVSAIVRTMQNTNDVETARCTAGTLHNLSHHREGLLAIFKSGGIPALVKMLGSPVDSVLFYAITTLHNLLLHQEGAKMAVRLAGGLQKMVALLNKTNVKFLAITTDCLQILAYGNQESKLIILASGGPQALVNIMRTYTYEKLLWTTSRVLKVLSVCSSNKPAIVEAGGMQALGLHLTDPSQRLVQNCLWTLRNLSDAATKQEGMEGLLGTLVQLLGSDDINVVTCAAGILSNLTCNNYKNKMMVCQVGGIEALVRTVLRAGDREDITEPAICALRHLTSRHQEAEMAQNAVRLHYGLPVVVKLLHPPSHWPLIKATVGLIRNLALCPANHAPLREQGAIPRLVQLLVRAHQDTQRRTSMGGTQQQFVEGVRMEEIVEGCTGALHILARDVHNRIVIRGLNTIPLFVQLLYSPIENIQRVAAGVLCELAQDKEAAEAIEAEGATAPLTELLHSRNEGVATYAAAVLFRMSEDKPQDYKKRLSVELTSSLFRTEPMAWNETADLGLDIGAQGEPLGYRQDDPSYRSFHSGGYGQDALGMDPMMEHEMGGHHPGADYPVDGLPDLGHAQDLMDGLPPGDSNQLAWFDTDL

The structures appear in SMILES notation.

One may read the IC50 as the concentration at which inhibition is half-maximal. The low end stands for greater potency, the high end for weaker potency.

For assay [1], the target named is T1, full-length B-Catenin (Uniprot ID P35222) (Homo sapiens, UniProt P35222).
T1 construct: 10 nM full-length B-Catenin (Uniprot ID P35222)
As to the kind of experiment: biochemical. In kind it is binding. Conditions: beta-Catenin FP IC50 (nM), competition fluorescence polarization.

Assay [2] has as its target beta-catenin/TCF4 interaction (Homo sapiens, UniProt P35222). Description: cell-based. Details: host or cells: HEK293. Particulars: NanoBRET Abs IC50 (uM), absolute IC50. (In general: BRET reads energy transfer from a luciferase to a nearby fluorophore.)

Turning to `CC(=O)N1CCC[C@]12CC=CCCCC1(CCCC=CCCCOC(=O)N3CC[C@@]4(C3)NC(=O)[C@H](CCCCNC(=O)CC[C@@H](C(=O)N[C@@H](C)C(N)=O)NC(=O)[C@H](Cc3csc5ccccc35)NC(=O)[C@H](Cc3ccsc3)NC4=O)NC(=O)[C@H](Cc3c[nH]c4ccccc34)NC(=O)[C@H](C)NC(=O)C(C)(C)NC(=O)[C@H](Cc3cccc(C(=O)O)c3)NC(=O)[C@H](CC(=O)O)NC1=O)NC(=O)[C@H](CC(C)(C)C)NC(=O)[C@H](CC(=O)O)NC2=O` (relative stereo) [I-359, Ac-PL3-Asp-Npg-B5-Asp-3COOHF-Aib-Ala-Trp-Lys*3-PyrS2-3Thi-BztA-GlnR*3-Ala-NH2], the figures for the IC50 in assay [1] and in assay [2] were < 50 nM and 3 to 10 µM, respectively.

On to `CC(=O)N1CCC[C@]12CC=CCCCC1(CCCC=CCCCOC(=O)N3CC[C@@]4(C3)NC(=O)[C@H](CCCCNC(=O)CC[C@@H](C(=O)N[C@@H](C)C(N)=O)NC(=O)[C@H](Cc3csc5ccccc35)NC(=O)[C@H](Cc3ccsc3)NC4=O)NC(=O)[C@H](CO)NC(=O)[C@H](C)NC(=O)C(C)(C)NC(=O)[C@H](Cc3cccc(C(=O)O)c3)NC(=O)[C@H](CC(=O)O)NC1=O)NC(=O)[C@H](CC(C)(C)C)NC(=O)[C@H](CC(=O)O)NC2=O` (relative stereo) [I-363, Ac-PL3-Asp-Npg-B5-Asp-3COOHF-Aib-Ala-Ser-Lys*3-PyrS2-3Thi-BztA-GlnR*3-Ala-NH2], for which the half-maximal inhibitory concentration (IC50) in assay [1] is 50 to 200 nM; in assay [2], > 10 µM.

Regarding `CC(=O)N1CCC[C@]12CC=CCCCC1(CCCC=CCCCOC(=O)N3CC[C@@]4(C3)NC(=O)[C@H](CCCCNC(=O)CC[C@@H](C(=O)N[C@@H](C)C(N)=O)NC(=O)[C@H](Cc3csc5ccccc35)NC(=O)[C@H](Cc3ccsc3)NC4=O)NC(=O)[C@H](Cc3ccsc3)NC(=O)[C@H](C)NC(=O)C(C)(C)NC(=O)[C@H](Cc3cccc(C(=O)O)c3)NC(=O)[C@H](CC(=O)O)NC1=O)NC(=O)[C@H](CC(C)(C)C)NC(=O)[C@H](CC(=O)O)NC2=O` (relative stereo) [I-364, Ac-PL3-Asp-Npg-B5-Asp-3COOHF-Aib-Ala-3Thi-Lys*3-PyrS2-3Thi-BztA-GlnR*3-Ala-NH2], the IC50 in assay [1] is < 50 nM; in assay [2] it was < 1.5 µM.

Regarding `CC(=O)N1CCC[C@]12CC=CCCCC1(CCCC=CCCCOC(=O)N3CC[C@@]4(C3)NC(=O)[C@H](CCCCNC(=O)CC[C@@H](C(=O)N[C@@H](C)C(N)=O)NC(=O)[C@H](Cc3csc5ccccc35)NC(=O)[C@H](Cc3ccsc3)NC4=O)NC(=O)[C@H](Cc3cccs3)NC(=O)[C@H](C)NC(=O)C(C)(C)NC(=O)[C@H](Cc3cccc(C(=O)O)c3)NC(=O)[C@H](CC(=O)O)NC1=O)NC(=O)[C@H](CC(C)(C)C)NC(=O)[C@H](CC(=O)O)NC2=O` (relative stereo) [I-365, Ac-PL3-Asp-Npg-B5-Asp-3COOHF-Aib-Ala-2Thi-Lys*3-PyrS2-3Thi-BztA-GlnR*3-Ala-NH2], the IC50 in assay [1] is < 50 nM; in assay [2], 1.5 to 3 µM.

Take `CC(=O)N1CCC[C@]12CC=CCCCC1(CCCC=CCCCOC(=O)N3CC[C@@]4(C3)NC(=O)[C@H](CCCCNC(=O)CC[C@@H](C(=O)N[C@@H](C)C(N)=O)NC(=O)[C@H](Cc3csc5ccccc35)NC(=O)[C@H](Cc3ccsc3)NC4=O)NC(=O)[C@H](Cc3cccc(C(F)(F)F)c3)NC(=O)[C@H](C)NC(=O)C(C)(C)NC(=O)[C@H](Cc3cccc(C(=O)O)c3)NC(=O)[C@H](CC(=O)O)NC1=O)NC(=O)[C@H](CC(C)(C)C)NC(=O)[C@H](CC(=O)O)NC2=O` (relative stereo) [I-369, Ac-PL3-Asp-Npg-B5-Asp-3COOHF-Aib-Ala-3F3MeF-Lys*3-PyrS2-3Thi-BztA-GlnR*3-Ala-NH2]: the IC50 in assay [1] was < 50 nM; in assay [2], 3 to 10 µM.

For the molecule `CC(=O)N1CCC[C@]12CC=CCCCC1(CCCC=CCCCOC(=O)N3CC[C@@]4(C3)NC(=O)[C@H](CCCCNC(=O)CC[C@@H](C(=O)N[C@@H](C)C(N)=O)NC(=O)[C@H](Cc3csc5ccccc35)NC(=O)[C@H](Cc3ccsc3)NC4=O)NC(=O)[C@H](Cc3ccccc3)NC(=O)[C@H](C)NC(=O)[C@H](CCC(=O)N3CCOCC3)NC(=O)[C@H](Cc3cccc(C(=O)O)c3)NC(=O)[C@H](CC(=O)O)NC1=O)NC(=O)[C@H](CC(C)(C)C)NC(=O)[C@H](CC(=O)O)NC2=O` (relative stereo) [I-378, Ac-PL3-Asp-Npg-B5-Asp-3COOHF-MorphGln-Ala-Phe-Lys*3-PyrS2-3Thi-BztA-GlnR*3-Ala-NH2], the IC50 was < 50 nM in assay [1] and 1.5 to 3 µM in assay [2].

Consider `CC(=O)N1CCC[C@]12CC=CCCCC1(CCCC=CCCCOC(=O)N3CC[C@@]4(C3)NC(=O)[C@H](CCCCNC(=O)CC[C@@H](C(=O)N[C@@H](C)C(N)=O)NC(=O)[C@H](Cc3csc5ccccc35)NC(=O)[C@H](Cc3ccsc3)NC4=O)NC(=O)[C@H](Cc3ccccc3)NC(=O)[C@H](C)NC(=O)[C@H](CCC(=O)N(C)C)NC(=O)[C@H](Cc3cccc(C(=O)O)c3)NC(=O)[C@H](CC(=O)O)NC1=O)NC(=O)[C@H](CC(C)(C)C)NC(=O)[C@H](CC(=O)O)NC2=O` (relative stereo) [I-379, Ac-PL3-Asp-Npg-B5-Asp-3COOHF-Me2Gln-Ala-Phe-Lys*3-PyrS2-3Thi-BztA-GlnR*3-Ala-NH2], for which the results for the IC50 in assay [1] and in assay [2] were < 50 nM and 1.5 to 3 µM, respectively.

For the molecule `CC(=O)NCCCC[C@@H]1NC(=O)[C@H](Cc2cccc(C(=O)O)c2)NC(=O)[C@H](CC(=O)O)NC(=O)C2(CCCC=CCCCOC(=O)N3CC[C@@]4(C3)NC(=O)[C@H](CCCCNC(=O)CC[C@@H](C(=O)N[C@@H](C)C(N)=O)NC(=O)[C@H](Cc3csc5ccccc35)NC(=O)[C@H](Cc3ccsc3)NC4=O)NC(=O)[C@H](Cc3ccccc3)NC(=O)[C@H](C)NC1=O)CCCC=CC[C@]1(CCCN1C(C)=O)C(=O)N[C@@H](CC(=O)O)C(=O)N[C@@H](CC(C)(C)C)C(=O)N2` (relative stereo) [I-381, Ac-PL3-Asp-Npg-B5-Asp-3COOHF-AcLys-Ala-Phe-Lys*3-PyrS2-3Thi-BztA-GlnR*3-Ala-NH2], the values for the IC50 in assay [1] and in assay [2] were < 50 nM and 1.5 to 3 µM, respectively.

As to `CC(=O)N1CCC[C@]12CC=CCCCC1(CCCC=CCCCOC(=O)N3CC[C@@]4(C3)NC(=O)[C@H](CCCCNC(=O)CC[C@@H](C(=O)N[C@@H](C)C(N)=O)NC(=O)[C@H](Cc3csc5ccccc35)NC(=O)[C@H](Cc3ccsc3)NC4=O)NC(=O)[C@H](Cc3ccccc3)NC(=O)[C@H](C)NC(=O)[C@H](Cc3ccccc3)NC(=O)[C@H](Cc3cccc(C(=O)O)c3)NC(=O)[C@H](CC(=O)O)NC1=O)NC(=O)[C@H](CC(C)(C)C)NC(=O)[C@H](CC(=O)O)NC2=O` (relative stereo) [I-386, Ac-PL3-Asp-Npg-B5-Asp-3COOHF-Phe-Ala-Phe-Lys*3-PyrS2-3Thi-BztA-GlnR*3-Ala-NH2], the results for the IC50 in assay [1] and in assay [2] were < 50 nM and < 1.5 µM, respectively.

As for `CC(=O)N1CCC[C@]12CC=CCCCC1(CCCC=CCCCOC(=O)N3CC[C@@]4(C3)NC(=O)[C@H](CCCCNC(=O)CC[C@@H](C(=O)N[C@@H](C)C(N)=O)NC(=O)[C@H](Cc3csc5ccccc35)NC(=O)[C@H](Cc3ccsc3)NC4=O)NC(=O)[C@H](Cc3ccccc3)NC(=O)[C@H](C)NC(=O)[C@H](Cc3c[nH]cn3)NC(=O)[C@H](Cc3cccc(C(=O)O)c3)NC(=O)[C@H](CC(=O)O)NC1=O)NC(=O)[C@H](CC(C)(C)C)NC(=O)[C@H](CC(=O)O)NC2=O` (relative stereo) [I-387, Ac-PL3-Asp-Npg-B5-Asp-3COOHF-His-Ala-Phe-Lys*3-PyrS2-3Thi-BztA-GlnR*3-Ala-NH2], the half-inhibitory concentration (IC50) in assay [1] was < 50 nM; in assay [2], 3 to 10 µM.

Take `CC(=O)N1CCC[C@]12CC=CCCCC1(CCCC=CCCCOC(=O)N3CC[C@@]4(C3)NC(=O)[C@H](CCCCNC(=O)CC[C@@H](C(=O)N[C@@H](C)C(N)=O)NC(=O)[C@H](Cc3csc5ccccc35)NC(=O)[C@H](Cc3ccsc3)NC4=O)NC(=O)[C@H](Cc3ccccc3)NC(=O)[C@H](C)NC(=O)[C@H](C(C)C)NC(=O)[C@H](Cc3cccc(C(=O)O)c3)NC(=O)[C@H](CC(=O)O)NC1=O)NC(=O)[C@H](CC(C)(C)C)NC(=O)[C@H](CC(=O)O)NC2=O` (relative stereo) [I-388, Ac-PL3-Asp-Npg-B5-Asp-3COOHF-Val-Ala-Phe-Lys*3-PyrS2-3Thi-BztA-GlnR*3-Ala-NH2]: the half-inhibitory concentration (IC50) in assay [1] was < 50 nM; in assay [2] it was < 1.5 µM.

As to `CC(=O)N1CCC[C@]12CC=CCCCC1(CCCC=CCCCOC(=O)N3CC[C@@]4(C3)NC(=O)[C@H](CCCCNC(=O)CC[C@@H](C(=O)N[C@H](C(N)=O)C(C)C)NC(=O)[C@H](Cc3csc5ccccc35)NC(=O)[C@H](Cc3ccsc3)NC4=O)NC(=O)[C@H](Cc3ccccc3)NC(=O)[C@H](C)NC(=O)C(C)(C)NC(=O)[C@H](Cc3cccc(C(=O)O)c3)NC(=O)[C@H](CC(=O)O)NC1=O)NC(=O)[C@H](CC(C)(C)C)NC(=O)[C@H](CC(=O)O)NC2=O` (relative stereo) [I-396, Ac-PL3-Asp-Npg-B5-Asp-3COOHF-Aib-Ala-Phe-Lys*3-PyrS2-3Thi-BztA-GlnR*3-Val-NH2], the 50% inhibitory concentration (IC50) is < 50 nM in assay [1] and 1.5 to 3 µM in assay [2].

`CC(=O)N1CCC[C@]12CC=CCCCC1(CCCC=CCCCOC(=O)N3CC[C@@]4(C3)NC(=O)[C@H](CCCCNC(=O)CC[C@@H](C(=O)NC(C)(C)C(N)=O)NC(=O)[C@H](Cc3csc5ccccc35)NC(=O)[C@H](Cc3ccsc3)NC4=O)NC(=O)[C@H](Cc3ccccc3)NC(=O)[C@H](C)NC(=O)C(C)(C)NC(=O)[C@H](Cc3cccc(C(=O)O)c3)NC(=O)[C@H](CC(=O)O)NC1=O)NC(=O)[C@H](CC(C)(C)C)NC(=O)[C@H](CC(=O)O)NC2=O` (relative stereo) [I-397, Ac-PL3-Asp-Npg-B5-Asp-3COOHF-Aib-Ala-Phe-Lys*3-PyrS2-3Thi-BztA-GlnR*3-Aib-NH2]: the IC50 was < 50 nM in assay [1] and 1.5 to 3 µM in assay [2].
